Tests used:
MDCK cells = assay type: cell-based, canine
From the text: Cell culture: MDCK cells were a generous gift of Dr. Lawrence Sullivan (Kansas University Medical Center, Kansas City, Kans.). T84 cells were obtained from Dr. Daniel Devor (University of Pittsburgh, Pittsburgh, Pa.). MDCK and T84 cells were maintained with similar culture procedures. The culture medium was a 1:1 mixture of DMEM and Ham's F-12 (Gibco BRL, Grand Island, N.Y.) supplemented with 5% heat inactivated fetal bovine serum (BioWhittaker, Walkersville, Md.), and 1% penicillin and streptomycin (Gibco BRL). Cells were grown in plastic culture flasks in a humidified environment with 5% CO2 at 37° C. and passaged every 5-7 days. For Ussing chamber experiments, cells were plated on 1.13 cm^2 permeable supports (Snapwell™, Costar®, Cambridge, Mass.) at a density of approximately 1×10^6 cells/well and incubated in DMEM/F-12 supplemented with FBS and antibiotics (changed every other day) for 2-3 weeks prior to being mounted in modified Ussing flux chambers.
To form monolayers, the cells were plated onto the upper surface of a permeable membrane that forms the bottom of a plastic well. Two types were used. One was the Transwell™ insert (Costar®, Cambridge, Mass.) supported in a six-well tissue culture plate and the other type was the Snapwell™ (Costar®, Cambridge, Mass.). During incubation, the medium was replaced at 48-72 hour intervals. Confluent monolayers formed within 72 hours. Experiments were performed on the monolayers 6-9 days after the initial plating. Net fluid secretion responses were optimal after six days.
Solutions: Ringer solution was made fresh daily. The final concentration (in mM) was 120 NaCl, 25 NaHCO3 3.3 KH2HPO4, 0.8 K2HPO4, 1.2 MgCl2, 1.2 CaCl2, (290±2 mOsmol). All components of the Ringer solution were from Sigma (St. Louis, Mo.).
Epithelial electrical measurements: Transepithelial ion transport was evaluated in a modified Ussing chamber (Model DCV9, Navicyte, San Diego, Calif.). The Ussing chamber's fluid resistance compensation was completed in Ringer solution (see below). For electrical measurements cell monolayers were bathed in Ringer solution maintained at 37° C. and continuously bubbled with 5% CO2:95% O2. The transepithelial membrane potential (Vte) was clamped to zero and the transepithelial short circuit current (Isc), an indicator of net ion transport, was measured continuously with a voltage clamp apparatus (Model 558C, University of Iowa, Department of Bioengineering, Iowa City, Iowa). Data were digitally acquired at 1 Hz with a Macintosh computer (Apple Computer, Cuppertino, Calif.) using Aqknowledge software (ver. 3.2.6, BIOPAC Systems, Santa Barbara, Calif.) with an MP100A-CE interface.
Transepithelial ion transport was evaluated in a modified Ussing chamber (Model DCV9, Navicyte, San Diego, Calif.). […] The transepithelial membrane potential (Vte) was clamped to zero and the transepithelial short circuit current (Isc), an indicator of net ion transport, was measured continuously with a voltage clamp apparatus (Model 558C, University of Iowa, Department of Bioengineering, Iowa City, Iowa). […]
MDCK cell monolayers (in the presence of 1-EBIO to maximize basolateral membrane K^+ conductance) were exposed on the apical aspect to escelating peptide concentrations. Maximal change in Isc (relative to the Isc prior to peptide exposure) was recorded following each increment in apical peptide concentration. […]

[1] = Chemical cross-linking (BS3) and SDS-PAGE, oligomeric state of peptide in solution; assay type: physicochemical; conditions: SDS-PAGE of cross-linked peptide
Experimental: Chemical cross-linking: In order to visualize the oligomeric state of the peptide in solution a chemical cross-linking protocol was developed. Calculated amounts of each peptide were weighted out and dissolved in 1 mL of distilled water to make 1 mM stock solutions. A 100 mM stock solution of the chemical crosslinking reagent Bis[Sulfosuccinimidyl]suberate, BS^3, (Pierce Chemical Co., Rockford, Ill.) was prepared in dimethyl sulfoxide (DMSO). […] Sample were allowed to sit at room temperature for 15 minutes. 1-6 μL of 100 mM BS^3 was then added to the previously prepared peptide such that the crosslinking reagent was present in 20-fold excess. The final volume for each reaction was 100 μL. […] Each sample was then vacuum dried. Later dry samples were re-dissolved in 60 μL of distilled water along with 60 μL of a 2×-tricine SDS sample buffer (Novex, San Diego). All samples were then boiled at 100° C. for 5 minutes. 5 μL aliquots of each SDS boiled sample was then loaded into separate lanes of pre-cast, 1.0 mm, 10 well, 10-20% tricine gels (Novex, San Diego). Pre-made Novex tricine-SDS buffer was used in the electrophoresis. The reference well contained 1 μL of MultiMark® multi-colored molecular weight standard (Novex, San Diego). The electrophoresis was carried out at a constant 110 Volts for 90 minutes. […]

cultured CF monolayers = test: Glutathione transport in cultured CF monolayers; assay type: cell-based

In the case of `CC[C@H](C)[C@H](NC(=O)CNC(=O)[C@H](CC(C)C)NC(=O)CNC(=O)[C@@H](NC(=O)[C@H](CCCNC(=N)N)NC(=O)[C@H](C)NC(=O)[C@@H]1CCCN1C(=O)[C@H](CCCCN)NC(=O)[C@H](CCCCN)NC(=O)[C@H](CCCCN)NC(=O)[C@@H](N)CCCCN)C(C)C)C(=O)N[C@H](C(=O)N[C@H](C(=O)N[C@H](C(=O)N[C@@H](CC(C)C)C(=O)N[C@H](C(=O)N[C@@H](CCSC)C(=O)N[C@H](C(=O)N[C@H](C(=O)N[C@@H](CCC(N)=O)C(=O)N[C@@H](CO)C(=O)N[C@@H](CO)C(=O)NCC(=O)N[C@@H](CO)C(=O)N[C@@H](CCCNC(=N)N)C(=O)N[C@@H](C)C(=O)O)[C@@H](C)O)[C@@H](C)O)[C@@H](C)O)C(C)C)[C@@H](C)O)[C@@H](C)O` [SEQ ID No. 3, KKKKPARVGL GITTVLTMTT QSSGSRA, reference compound], the “increase in short circuit current (ISC) over that of C-K4-M2GlyR” value (MDCK cells) is reported as “approximately 50%”, the EC50 (MDCK cells; MDCK monolayers, modified Hill equation fit, read-out: half maximal effect on Isc (EC50 / K1/2)) is reported as 208 ± 6 µM and the “predicted IMAX” value (MDCK cells; fit of modified Hill equation, MDCK monolayers, 1-EBIO) is reported as 24.3±0.5 μA cm^−2. The “Activity profile in MDCK cells” value (MDCK cells; peptide at 500 μM) was 15.9 at 500 μM μA/cm2, the “fold higher concentration required to support anion flux than SEQ ID No. 18” value (MDCK cells; ratio of EC50) was 4 fold and the number of aggregates [1] was ≥ 12. The “size of largest assemblies” value [1] was ~36 kDa and the glutathione transport (cultured CF monolayers) was “helps restore glutathione transport”.

Source: patent US8163870B2, “Channel forming peptides” (Kansas State University Research Foundation, priority 2000, dated 2012)
